Drawing on US20230092679A1, “MCL-1 INHIBITOR ANTIBODY-DRUG CONJUGATES AND METHODS OF USE” (NOVARTIS AG, priority 2019, published 2023), this text covers IC50 for one molecule.

In the experiment the test system is NCI-H929 multiple myeloma cell line. Briefly: In vitro cytotoxicity, Microculture Tetrazolium Assay (MTT). It is filed as cell-based. To be noted: read-out: IC50 (M) MTT H929; NCI-H929, 48 hours.

Regarding `COc1ccc(-c2nccc(COc3ccccc3C[C@@H](Oc3ncnc4sc(-c5ccc(F)cc5)c(-c5ccc(OCCN6CCN(C)CC6)c(Cl)c5C)c34)C(=O)O)n2)cc1`, the IC50 (commonly the concentration at which inhibition is half-maximal) stood at 7e-09 M.
